Active and inactive are the calls of the source. The calls are words filed in the database; no cut-off is given here.
Tests used:
Xanthium strumarium [1] = experiment: Post-emergence herbicidal activity against Xanthium strumarium (cocklebur) assessed as mortality at 100 g a.i/10 a applied 11 days after germination as foliar spray
Abutilon theophrasti [2] = experiment: Post-emergence herbicidal activity against Abutilon theophrasti (velvetleaf) assessed as mortality at 200 g a.i/10 a applied 11 days after germination as foliar spray
Echinochloa crus-galli [3] = experiment: Post-emergence herbicidal activity against Echinochloa crus-galli (barnyard grass) assessed as mortality at 100 g a.i/10 a applied 11 days after germination as foliar spray
Abutilon theophrasti [4] = experiment: Post-emergence herbicidal activity against Abutilon theophrasti (velvetleaf) assessed as mortality at 100 g a.i/10 a applied 11 days after germination as foliar spray
Ipomoea lacunosa [5] = experiment: Post-emergence herbicidal activity against Ipomoea lacunosa assessed as mortality at 100 g a.i/10 a applied 11 days after germination as foliar spray
Echinochloa crus-galli [6] = experiment: Post-emergence herbicidal activity against Echinochloa crus-galli (barnyard grass) assessed as mortality at 200 g a.i/10 a applied 11 days after germination as foliar spray
Ipomoea lacunosa [7] = experiment: Post-emergence herbicidal activity against Ipomoea lacunosa assessed as mortality at 200 g a.i/10 a applied 11 days after germination as foliar spray
Xanthium strumarium [8] = experiment: Post-emergence herbicidal activity against Xanthium strumarium (cocklebur) assessed as mortality at 200 g a.i/10 a applied 11 days after germination as foliar spray

C[As](=O)(O)O
Activity (Xanthium strumarium [1]): inactive
Activity (Abutilon theophrasti [2]): inactive
Activity (Echinochloa crus-galli [3]): Active
mortality (Abutilon theophrasti [4]): < 5%
mortality (Ipomoea lacunosa [5]): < 5%
Activity (Echinochloa crus-galli [6]): Active
Activity (Ipomoea lacunosa [7]): Active
Activity (Xanthium strumarium [8]): Active

Reference: ChEMBL document CHEMBL3046894, “Synthesis and Herbicidal Activity of Pyrimidinyl Salicylic and Thiosalicylic Acids” (J Pestic Sci, 1996)
